Test results reported in patent publication US20090131702A1, “METHOD FOR THE PRODUCTION OF METAL CARBOXYLATES AND THE METAL AMINOATE OR METAL HYDROXY ANALOGUE METHIONATE DERIVATIVES THEREOF, AND USE OF SAME AS GROWTH PROMOTERS IN ANIMAL FEED” (NOREL, S.A., priority 2003, published 2009).
Read-outs that look alike come from different tables or passages of the source.

Experiments:
[1] = Test in broilers: production parameters, zinc methioninate / formate / complex (Example 12); assay type: in vivo, broilers of the Ross strain; conditions: 50 ppm of zinc added to base diet
Excerpt: Four experimental treatments were used, comprising the same basic diet supplemented with different sources of zinc:
(§1) Control of production parameters was effected at 21 and 42 days of age, recording the live weight and the consumption of feed per batch.

[2] = broilers
[3] = Test of efficacy in piglets: production parameters, copper glycinate / formate / complex (Example 15); assay type: in vivo; conditions: 21-42 days, 125 ppm of copper added to base diet
[4] = Test in broilers: production parameters, copper methioninate / formate / complex (Example 13); assay type: in vivo, broilers of the Ross strain; conditions: 25 ppm of copper added to base diet
Method: Four experimental treatments were used, comprising the same basic diet supplemented with different sources of copper:
The dose of copper was calculated taking into account the copper content of the ingredients and the copper requirements in the case of treatments T-0 to T-3.
as §1

Compound	IC (index of conversion) ([1]; 0-21 days)	IC (index of conversion) ([1]; 0-42 days)	IC (index of conversion) ([1]; 21-42 days)	IC (index of conversion) ([2]; 0-21 days, 20 ppm of copper added to base diet)	IC (index of conversion) ([2]; 0-21 days, 150 ppm of copper added to base diet)	IC (index of conversion) ([2]; 0-42 days, 20 ppm of copper added to base diet)	IC (index of conversion) ([2]; 0-42 days, 150 ppm of copper added to base diet)	IC (index of conversion) ([2]; 21-42 days, 20 ppm of copper added to base diet)	IC (index of conversion) ([2]; 21-42 days, 150 ppm of copper added to base diet)	IC (index of conversion) [3]	IC (index of conversion) ([4]; 0-21 days)	IC (index of conversion) ([4]; 0-42 days)	IC (index of conversion) ([4]; 21-42 days)
O=S(=O)([O-])[O-].[Zn+2] [zinc sulfate]	1.40 a	1.90 a	2.12 a										
O=S(=O)([O-])[O-].[Cu+2] [copper sulfate]				1.43 a	1.38 b	1.94 a	1.80 b	2.16 a	2.01 b	2.10 a	1.43 a	1.99 a	2.23 a
